Data taken from PubChem BioAssay AID2305 (GlaxoSmithKline (GSK), 2010).
pIC50: −log10 of the molar value.

Test system: P. falciparum 3D7 growth, pLDH absorbance
Experiment: blood-stage malaria parasite growth potency – strain 3D7, dose response (AID 2305)

`COc1cc(C(=O)NC(SC2=NCCS2)C(Cl)(Cl)Cl)cc(OC)c1OC` (stereo unspecified) gave a pIC50 of 6.01.
